Measured values reported in US20260258050A1, “IMMUNOMODULATOR” (HITGEN INC., priority 2023, published 2026).

Amino acid sequences for entries named in this document (tags omitted). Residues count along the entry.
UniProt Q16552, 20-155 limits assumed: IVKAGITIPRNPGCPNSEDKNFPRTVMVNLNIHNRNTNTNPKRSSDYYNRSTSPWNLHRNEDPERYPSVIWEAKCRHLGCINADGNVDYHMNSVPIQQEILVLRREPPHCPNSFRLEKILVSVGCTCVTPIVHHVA
UniProt Q16552, 24-155 limits assumed: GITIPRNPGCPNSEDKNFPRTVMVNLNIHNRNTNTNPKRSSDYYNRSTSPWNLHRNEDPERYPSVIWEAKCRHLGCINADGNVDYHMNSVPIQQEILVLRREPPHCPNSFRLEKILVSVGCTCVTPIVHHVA
UniProt Q96PD4, 31-163 limits assumed: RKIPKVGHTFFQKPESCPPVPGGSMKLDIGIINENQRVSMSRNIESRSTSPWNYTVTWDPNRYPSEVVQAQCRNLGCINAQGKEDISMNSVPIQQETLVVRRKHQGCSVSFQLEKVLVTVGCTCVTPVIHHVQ

How the values were obtained:
Human IL-17A = Human IL-17A (Homo sapiens, UniProt Q16552); assay: IL-17A enzyme-linked immunosorbent assay (competitive ELISA, IL-17A/IL-17Ra receptor-ligand binding); settings: read-out: IC50, inhibitory activity of compounds on human IL-17A, human IL-17A coated plate, human IL-17Ra
Human IL-17AF = Human IL-17AF (Homo sapiens, UniProt Q16552+Q96PD4); assay: IL-17AF ELISA (competitive ELISA, IL-17AF/IL-17Ra receptor-ligand binding); settings: read-out: IC50, inhibitory activity of compounds on human IL-17AF, human IL-17AF coated plate, human IL-17Ra

| Structure (SMILES) | IC50 (Human IL-17A) [µM] | IC50 (Human IL-17AF) [µM] |
| --- | --- | --- |
| Cc1[nH]nc2c1-c1cc(F)c(NC(=O)[C@@H](NC(=O)c3ccnn3C(C)C(F)F)C(C3CC3)C3CC3)cc1COCC2 (single isomer, unassigned) | 0.05 to 0.15 | – |
| Cc1[nH]nc2c1-c1cc(F)c(NC(=O)[C@@H](NC(=O)c3ccnn3C(C)C)C(C3CC3)C3CC3)cc1COC(C)C2 (single isomer, unassigned) | < 0.05 | 0.1 to 0.5 |
